Laboratory results published in patent publication US20040142972A1, “CNS target modulators” (Hypnion, Inc., priority 2001, published 2004).

By UniProt entry, the sequences of proteins in these tests, tags left out.
UniProt P08172, whole entry: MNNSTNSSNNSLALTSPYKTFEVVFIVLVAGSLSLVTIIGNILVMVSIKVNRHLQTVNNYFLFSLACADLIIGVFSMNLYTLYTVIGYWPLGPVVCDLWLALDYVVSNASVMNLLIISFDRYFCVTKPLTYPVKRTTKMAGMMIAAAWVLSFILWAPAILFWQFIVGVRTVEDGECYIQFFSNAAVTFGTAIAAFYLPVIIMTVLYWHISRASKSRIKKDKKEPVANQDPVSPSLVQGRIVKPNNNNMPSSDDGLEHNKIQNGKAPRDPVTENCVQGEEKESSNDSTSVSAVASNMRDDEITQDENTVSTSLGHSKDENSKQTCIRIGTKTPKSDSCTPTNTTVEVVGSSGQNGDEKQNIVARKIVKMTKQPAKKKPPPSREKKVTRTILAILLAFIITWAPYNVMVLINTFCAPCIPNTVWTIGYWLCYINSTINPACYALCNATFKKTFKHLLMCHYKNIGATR

Biological target: T1, cloned muscarinic - M2 binding site (Homo sapiens, UniProt P08172)
T1 construct: expressed in transfected cells; host or cells: CHO cells
Assay: Muscarinic M2 binding assay, [3H]-Scopolamine N-Methyl Chloride, human recombinant expressed in CHO cells
Details: Table 6, read-out: Receptor Binding Data (Ki nM) M2

O=C(O)CN1CCC(=C2c3ccccc3COc3ccccc32)CC1 [Compound 7a]
Ki: > 10000 nM
